# From publication PMC3490489 (Clinical cancer research : an official journal of the …, 2012)
# Where two headings read alike, the source gives them in different places.
# Format: in vivo, human
smiles,measurement,setting,value
"CNC(=O)c1cc(Oc2ccc(NC(=O)Nc3ccc(Cl)c(C(F)(F)F)c3)cc2)ccn1 [sorafenib, reference compound]",Mean CL/F,females,60±28 mL/min/m^2
same,concentration at 7 day,"human, plasma, oral, 150 mg/m^2 twice daily",7100 ng/mL
same,Mean CL/F,males,67±43 mL/min/m^2
same,Mean sorafenib steady-state concentration,"sorafenib 200 mg/m^2 twice daily, 24 patients",5.1 mg/L
